SMILES strings stand for the structures. Where “and” joins values, the source holds several entries; their conditions need not be identical. Equal values may be shown once. Read-outs that look alike come from different tables or passages of the source.

The nature of series [1]: Brain concentrations and brain pharmacokinetics after a single oral (gavage) dose in fasted male Sprague-Dawley rats, LC-MS/MS. It counts as in vivo. Conditions: oral gavage 2 mg/kg.
The next series can be described thus: in vivo. As to conditions: male, Sprague-Dawley, rat, plasma, po, 2 mg/kg.
Series [2] can be described thus: Plasma pharmacokinetics after a single oral (gavage) dose in fasted male Sprague-Dawley rats, LC-MS/MS.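 Note: plasma from heparinized blood sampled up to 14 h post dose, three rats per timepoint, parameters by non-compartmental analysis of mean concentration-time data.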 As to conditions: oral gavage 2 mg/kg.
Setting [3] is: 1 hour post dose, individual fasted male Sprague Dawley rats.
Where [4] appears, read: 4 hour post dose, individual fasted male Sprague Dawley rats.
Setting [5] is: 8 hour post dose, individual fasted male Sprague Dawley rats.
Where [6] appears, read: 14 hour post dose, individual fasted male Sprague Dawley rats.
Setting [7] is: male, Sprague-Dawley, rat, brain, po, 2 mg/kg, 1 hour post dose, individual fasted male Sprague Dawley rats, read-out: Concentration in brain, individual animal.
Where [8] appears, read: male, Sprague-Dawley, rat, brain, po, 2 mg/kg, 4 hour post dose, individual fasted male Sprague Dawley rats, read-out: Concentration in brain, individual animal.

For `Cn1c(=O)c2c(ncn2C)n(C)c1=O` [Caffeine, reference compound], the “Concentration in brain, individual animal” value was 1940 ng/g and 1780 ng/g in series [1] (setting [3]); 1200 ng/g and 1290 ng/g in series [1] (setting [4]); 715 ng/g and 672 ng/g and 271 ng/g in series [1] (setting [5]); 84 ng/g and 80 ng/g and 23.8 ng/g in series [1] (setting [6]). The concentration at 1 h in series [1] (setting [7]) came to 2010 ng/g. The concentration at 4 h in series [1] (setting [8]) was determined as 1140 ng/g. In addition, the concentration at 6 h in the series “in vivo” worked out at 1200 ng/mL. The “Concentration in plasma, individual animal” value (shortened to “Concentration in plasma”) was 2250 ng/mL and 2670 ng/mL and 2350 ng/mL in series [2] (0.25 hr post dose); 2460 ng/mL (2×) and 2300 ng/mL in series [2] (0.5 hr post dose); 2080 ng/mL and 2030 ng/mL and 2090 ng/mL in series [2] (2 hr post dose); 2100 ng/mL and 1970 ng/mL and 2020 ng/mL in series [2] (3 hr post dose); 1710 ng/mL and 1800 ng/mL and 1950 ng/mL in series [2] (4 hr post dose); 1470 ng/mL and 1310 ng/mL and 816 ng/mL in series [2] (6 hr post dose). Also, the “Concentration in plasma” value was 1150 ng/mL and 916 ng/mL and 480 ng/mL in series [2] (8 hr post dose); 439 ng/mL and 382 ng/mL and 212 ng/mL in series [2] (10 hr post dose); 231 ng/mL and 194 ng/mL and 87.7 ng/mL in series [2] (12 hr post dose); 136 ng/mL and 117 ng/mL and 38.2 ng/mL in series [2] (14 hr post dose).

With `[2H]C([2H])([2H])n1c(=O)c2c(ncn2C([2H])([2H])[2H])n(C([2H])([2H])[2H])c1=O` [Compound D9-Caffeine, D9-caffeine], the “Concentration in brain, individual animal” value in series [1] (setting [3]) is 1370 ng/g and 1670 ng/g; in series [1] (setting [4]), 1730 ng/g and 1630 ng/g; in series [1] (setting [5]), 1070 ng/g and 1110 ng/g; in series [1] (setting [6]), 414 ng/g and 509 ng/g. Further, in series [1] (setting [7]), the concentration at 1 h was 1570 ng/g. For the same compound, the concentration at 4 h in series [1] (setting [8]) is 1570 ng/g. Besides, the concentration at 8 h was 1150 ng/g in series [1] (male, Sprague-Dawley, rat, brain, po, 2 mg/kg, 8 hour post dose, fasted male Sprague-Dawley rats, n = 3/time point, read-out: Concentration in brain, Mean) and 1280 ng/g in series [1] (male, Sprague-Dawley, rat, brain, po, 2 mg/kg, 8 hour post dose, individual fasted male Sprague Dawley rats, read-out: Concentration in brain, individual animal). Also, the concentration at 14 h in series [1] (male, Sprague-Dawley, rat, brain, po, 2 mg/kg, 14 hour post dose, individual fasted male Sprague Dawley rats, read-out: Concentration in brain, individual animal) was found to be 465 ng/g. Also, in “in vivo”, the concentration at 10 h was 1210 ng/mL. Further, the “Concentration in plasma” value in series [2] (0.25 hr post dose) was 1730 ng/mL and 1480 ng/mL and 1940 ng/mL; in series [2] (0.5 hr post dose) it was 1680 ng/mL and 1520 ng/mL and 2030 ng/mL; in series [2] (2 hr post dose) it was 2400 ng/mL and 2360 ng/mL and 2260 ng/mL; in series [2] (3 hr post dose), 2330 ng/mL and 2440 ng/mL and 2300 ng/mL; in series [2] (4 hr post dose) it was 2350 ng/mL and 2250 ng/mL and 2200 ng/mL; in series [2] (6 hr post dose), 1850 ng/mL and 1740 ng/mL and 1790 ng/mL. Further, the “Concentration in plasma” value in series [2] (8 hr post dose) is 1670 ng/mL and 1460 ng/mL and 1520 ng/mL; in series [2] (10 hr post dose), 1160 ng/mL and 1170 ng/mL and 1300 ng/mL; in series [2] (12 hr post dose) it was 910 ng/mL and 821 ng/mL and 959 ng/mL; in series [2] (14 hr post dose), 633 ng/mL and 643 ng/mL and 770 ng/mL.

The values are drawn from patent publication US20200390128A1 (Lennham Pharmaceuticals, Inc., priority 2019, published 2020).
